Molecular target: T1, human OX1 receptors (Homo sapiens, UniProt O43613)
T1 construct: expressed in transfected cells; host or cells: CHO cells
Experiment: antagonistic activity against human OX1 receptor, [Ca2+]i fluorimetry in transfected CHO cells
Type: cell-based
Settings: CHO cells transfected with human recombinant OX1; activated with orexin-A 3 nM; pKb = co-logarithm of apparent dissociation constant (modified Cheng Prusoff)
Method: In a typical experiment, the antagonistic activity against human OX1 and OX2 receptors is determined by using CHO e HEK-293 cells transfected with human recombinant OX1 and OX2 receptors respectively, seeded at density of 2 and 3×10^4 cells/well respectively in a 96 fluorimetry well plate. Thus the plate was loaded with the calcium dye (Fluo-4NW/probenecid in HBSS, Hepes 20 mM, pH 7.4; Invitrogen) at 37° C. for 60 min. Afterward the temperature was equilibrated at 22° C. for 15 min and the [Ca2+]i measured directly on the plate by using a fluorescent plate reader (CeliLux Perkin Elmer).
Invention compounds were dissolved in DMSO, diluted in HBSS (DMSO, 0.3% final) and added to the wells. After 5 min CHO cells were activated with orexin-A, 3 nM while HEK-293 cells were activated with orexin-B, 10 nM. The compounds, dissolved in DMSO and diluted in the medium (DMSO, 0.3% final), have been analysed in the 1 nM-1 μM concentration range (every concentration in duplicate). The antagonistic activity has been expressed as pKb (co-logarithm of the apparent dissociation constant calculated by using the modified Cheng Prusoff equation). The results are expressed as percent of control specific […] response ((measured specific response/control specific agonist response)×100) obtained in the presence of the test compounds. […]

Amino acid sequences for entries named in this document (tags omitted).
UniProt O43613, whole entry: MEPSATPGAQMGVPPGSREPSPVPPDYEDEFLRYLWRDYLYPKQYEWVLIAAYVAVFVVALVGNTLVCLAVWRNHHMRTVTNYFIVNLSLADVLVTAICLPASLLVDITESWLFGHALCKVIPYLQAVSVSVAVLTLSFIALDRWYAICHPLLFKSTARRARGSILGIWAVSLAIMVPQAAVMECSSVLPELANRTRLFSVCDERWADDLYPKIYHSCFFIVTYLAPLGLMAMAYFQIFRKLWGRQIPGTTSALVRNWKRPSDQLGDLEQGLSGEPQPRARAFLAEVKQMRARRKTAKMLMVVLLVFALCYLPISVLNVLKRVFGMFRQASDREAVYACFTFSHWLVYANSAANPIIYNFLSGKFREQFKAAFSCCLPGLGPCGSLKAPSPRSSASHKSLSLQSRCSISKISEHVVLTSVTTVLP

Question: For Cc1ccc(-n2nccn2)c(C(=O)N2CCC(F)(F)CC2CNc2ccc(Cl)cn2)c1 (single isomer, unassigned; isomer a) [Compound 3, (2-(((5-chloropyridin-2-yl)amino)methyl)-4,4-difluoropiperidin-1-yl)(5-methyl-2-(2H-1,2,3-triazol-2-yl)phenyl)methanone (isomer A)], which Kb is on record?
Answer: Its Kb is 501 pM.
